Values quoted from earlier work in US20160130659A1.

Target: recombinant human GST-Syk (Homo sapiens, UniProt P43405)
Conditions: read-out: rhSyk (nM), rhSyk activity (IC50); HTRF, recombinant human SYK fusion protein; representative compounds of WO 2012/154519

IC50: 318 nM
Compound: Cc1cc(Nc2nccc(C)n2)cc(-c2cnc(C[C@]3(O)CC[C@H](C(=O)O)CC3)s2)c1
